Measured values reported in patent US11013730B1, “Composition comprising selenazol or thiazalone derivatives and silver and method of treatment therewith” (Thioredoxin Systems AB, priority 2014, dated 2021).

System: E. coli mutants gshA^−, trxA^−trxB^−trxC^−

O=c1c2ccccc2[se]n1-c1ccccc1 [EbSe 6, 2-phenyl-1,2-benzisoselenazol-3(2H)-one]
sensitivity of mutants to combination treatment (ebselen and silver, gshA^− and trxA^− trxB^− trxC^− mutants): more sensitive

O=[N+]([O-])[O-].[Ag+] [silver, Silver nitrate]
silver concentration that inhibited bacterial growth (gshA^− mutant, in the presence of 4 μM of ebselen): less than 1 μM | sensitivity of mutants compared to wild type E. coli (silver alone, gshA^− and trxA^−trxB^−trxC^−): did not exhibit a great difference
